Publication PMC12339401, “Reconstitution of BNIP3/NIX-mitophagy initiation reveals hierarchical flexibility of the autophagy machinery” (Nature Cell Biology, 2025)

Molecular target: T1, GFP-tagged ATG13/101 subcomplex (UniProt O75143 1-517; Q9BSB4 1-218)
T1 construct: ATG13, GST-TEV-GFP-tagged ATG13; ATG101; source: HEK293F cells, purified; not shown: GFP, N-terminal, kept
T1 sequence (looked up) 1: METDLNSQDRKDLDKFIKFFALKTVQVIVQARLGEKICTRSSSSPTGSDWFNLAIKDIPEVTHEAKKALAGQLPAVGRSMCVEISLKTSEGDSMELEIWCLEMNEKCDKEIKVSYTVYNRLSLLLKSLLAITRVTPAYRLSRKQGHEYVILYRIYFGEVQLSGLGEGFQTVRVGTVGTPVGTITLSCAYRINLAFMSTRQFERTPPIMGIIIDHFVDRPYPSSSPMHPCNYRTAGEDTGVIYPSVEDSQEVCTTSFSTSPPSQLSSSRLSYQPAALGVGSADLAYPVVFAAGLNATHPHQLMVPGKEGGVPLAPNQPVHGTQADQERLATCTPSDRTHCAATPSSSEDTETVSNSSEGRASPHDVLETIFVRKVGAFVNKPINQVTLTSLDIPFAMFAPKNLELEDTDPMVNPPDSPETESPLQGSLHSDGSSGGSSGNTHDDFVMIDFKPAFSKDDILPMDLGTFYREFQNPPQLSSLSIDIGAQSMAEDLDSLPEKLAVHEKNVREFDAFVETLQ
T1 sequence (looked up) 2: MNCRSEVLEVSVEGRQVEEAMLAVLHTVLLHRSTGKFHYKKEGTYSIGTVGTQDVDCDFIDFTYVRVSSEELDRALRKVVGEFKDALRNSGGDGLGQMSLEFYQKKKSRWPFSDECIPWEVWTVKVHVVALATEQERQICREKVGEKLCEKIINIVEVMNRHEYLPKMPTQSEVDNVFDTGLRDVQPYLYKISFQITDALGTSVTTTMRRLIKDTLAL
Assay: microscopy-based bead assay; GFP-tagged bait on GFP-trap agarose beads, mCherry-tagged prey in solution, confocal imaging
Conditions: both partners purified

B1: mCherry-WIPI3 (natural protein)
chain: not shown
notes: 6xHis-TEV-mCherry tag; also called mCherry-tagged WIPI3; source: E. coli Rosetta pLysS, purified; not shown: mCherry, N-terminal, kept
binding result: binds
